{"source": "patent US11891351B2", "about": "“Synthesis of capsaicin derivatives” (dated 2024)", "origin": "cited, not measured here", "key": {"[1]": {"system": "gene mutations and chromosomal damage", "conditions": "Rage Paulsen et al., Toxicology Research and Application 2018, 2, 1"}, "[2]": {"conditions": "EFSA NDA Panel et al., EFSA Journal 2019, 17(6), e05718"}, "[3]": {"conditions": "Rage Paulsen et al., Toxicology Research and Application 2018, 2, 1"}}}
{"smiles": "COc1cc(CNC(=O)CCCCC#Cc2ccccc2)ccc1O", "values": [{"measurement": "safety with regards to gene mutations and chromosomal damage", "setting": "[1]", "result": "safe with regards to gene mutations and chromosomal damage"}, {"measurement": "safety assessment by the European Food Safety Authority", "setting": "[2]", "result": "regarded as safe"}, {"measurement": "systemic toxicity", "setting": "[3]", "result": "low systemic toxicity"}]}
